Experiments:
Test in all cases: Binding Assay
Nociceptin receptor = Nociceptin receptor (Homo sapiens, UniProt P41146); conditions: pH 7.4
Mu-type opioid receptor = Mu-type opioid receptor (Homo sapiens, UniProt P35372)
[1] = target: Kappa-type opioid receptor (Homo sapiens, UniProt P41145)

Amino acid sequences for entries named in this document (tags omitted). A change or cut given only in a name is not applied to a line headed by its entry.
UniProt P41146: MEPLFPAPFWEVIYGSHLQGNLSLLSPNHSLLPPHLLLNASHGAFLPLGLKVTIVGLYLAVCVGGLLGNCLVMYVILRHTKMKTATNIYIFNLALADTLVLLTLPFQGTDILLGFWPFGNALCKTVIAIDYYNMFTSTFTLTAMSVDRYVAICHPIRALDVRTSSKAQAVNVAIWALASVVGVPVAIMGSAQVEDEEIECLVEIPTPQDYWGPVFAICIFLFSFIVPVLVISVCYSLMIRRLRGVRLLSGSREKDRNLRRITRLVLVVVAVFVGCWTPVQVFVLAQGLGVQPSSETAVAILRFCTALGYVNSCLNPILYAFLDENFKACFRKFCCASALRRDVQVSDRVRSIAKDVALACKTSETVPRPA
UniProt P35372, whole entry, looked up: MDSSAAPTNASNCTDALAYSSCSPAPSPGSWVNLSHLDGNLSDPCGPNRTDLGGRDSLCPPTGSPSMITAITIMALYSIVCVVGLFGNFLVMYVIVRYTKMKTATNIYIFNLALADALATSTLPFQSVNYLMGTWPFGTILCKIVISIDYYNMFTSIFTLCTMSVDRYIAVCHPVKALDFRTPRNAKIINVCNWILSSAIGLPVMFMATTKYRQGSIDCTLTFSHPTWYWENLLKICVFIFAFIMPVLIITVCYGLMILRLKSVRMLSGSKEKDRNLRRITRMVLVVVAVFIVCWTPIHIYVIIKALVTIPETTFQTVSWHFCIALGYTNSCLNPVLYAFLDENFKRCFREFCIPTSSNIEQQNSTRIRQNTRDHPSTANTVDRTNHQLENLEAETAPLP
UniProt P41145: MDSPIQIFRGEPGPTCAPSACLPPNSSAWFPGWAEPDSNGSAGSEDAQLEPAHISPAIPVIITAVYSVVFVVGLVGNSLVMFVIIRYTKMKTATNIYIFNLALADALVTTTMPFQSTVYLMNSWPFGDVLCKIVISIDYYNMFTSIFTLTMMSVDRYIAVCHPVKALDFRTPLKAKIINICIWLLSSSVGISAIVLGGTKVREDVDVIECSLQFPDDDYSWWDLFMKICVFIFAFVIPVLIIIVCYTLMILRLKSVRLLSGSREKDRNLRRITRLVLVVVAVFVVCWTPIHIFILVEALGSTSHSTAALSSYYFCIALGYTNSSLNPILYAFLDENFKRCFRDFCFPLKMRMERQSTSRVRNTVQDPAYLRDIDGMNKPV

Row | SMILES | Ki (Nociceptin receptor) | Ki (Mu-type opioid receptor) | Ki [1]
1 | CNC(=O)CN(C)C1(c2ccccc2)CCC(c2ccccc2)(N(C)C)CC1 (stereo unspecified) | 0.0074 µM | – | –
2 | CN(C)C1(c2ccccc2)CCC(c2ccccc2)(N(C)C(=O)C(c2ccccc2)c2ccccc2)CC1 (stereo unspecified) | 0.01 µM | – | –
3 | CC(NC(=O)/C=C/c1ccccc1)C1CCC(c2cccc(F)c2)(N(C)C)CC1 (stereo unspecified) | 0.755 µM | 0.131 µM | –
4 | CNC1(c2[nH]c3ccccc3c2C)CCC(c2cccc(F)c2)(N(C)C)CC1 (stereo unspecified) | 0.62 µM | – | –
5 | CN(C)C1(Cc2ccccc2)CCC(c2ccccc2)(N(C)C)CC1 (stereo unspecified) | – | – | 3.75 µM
